The text below walks through data of US20240115577A1, “SMALL MOLECULE REGULATORS OF ALVEOLAR TYPE 2 CELL PROLIFERATION FOR THE TREATMENT OF PULMONARY DISEASES” (THE SCRIPPS RESEARCH INSTITUTE, priority 2021, published 2024).

Protein sequences, listed by entry. Tags and fused reporters are not part of them.
UniProt P27487, whole entry: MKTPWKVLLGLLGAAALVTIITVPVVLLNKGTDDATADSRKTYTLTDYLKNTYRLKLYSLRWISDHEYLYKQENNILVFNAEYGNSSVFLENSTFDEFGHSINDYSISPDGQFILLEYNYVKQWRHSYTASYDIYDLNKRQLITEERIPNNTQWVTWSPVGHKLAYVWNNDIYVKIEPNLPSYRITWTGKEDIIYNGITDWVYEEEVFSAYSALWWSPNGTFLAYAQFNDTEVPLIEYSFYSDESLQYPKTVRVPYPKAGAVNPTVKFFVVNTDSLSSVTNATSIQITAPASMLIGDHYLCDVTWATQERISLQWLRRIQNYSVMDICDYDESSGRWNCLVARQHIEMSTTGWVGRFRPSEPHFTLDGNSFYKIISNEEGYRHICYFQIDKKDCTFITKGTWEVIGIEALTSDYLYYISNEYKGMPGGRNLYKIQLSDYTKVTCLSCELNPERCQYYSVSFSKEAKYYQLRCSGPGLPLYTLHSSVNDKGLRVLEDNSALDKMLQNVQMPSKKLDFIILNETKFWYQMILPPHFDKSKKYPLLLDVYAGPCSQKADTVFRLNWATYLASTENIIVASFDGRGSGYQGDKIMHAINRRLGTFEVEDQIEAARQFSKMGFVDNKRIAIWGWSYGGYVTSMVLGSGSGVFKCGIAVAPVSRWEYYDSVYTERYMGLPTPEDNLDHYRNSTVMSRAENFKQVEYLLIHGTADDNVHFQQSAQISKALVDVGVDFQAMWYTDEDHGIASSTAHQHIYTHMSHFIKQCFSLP

Read-outs that look alike come from different tables or passages of the source.

One experiment relates to Primary human AEC2s. Briefly: AEC2 proliferation assay (Ki67 high content imaging). It counts as cell-based. As to conditions: Table 5.
The next experiment addresses Human DPP4 (Homo sapiens (Human), UniProt P27487). Briefly: DPP4 activity assay (Sigma-Aldrich MAK088 kit).

Broadly, the EC50 is the midpoint of the concentration-response curve. High values mean lower potency in that assay, low ones higher potency in that assay. In the experiment with Primary human AEC2s, `CC#CCn1c(N2CCC[C@@H](N)C2)nc2c1c(=O)n(Cc1nc(C)c3ccccc3n1)c(=O)n2C` [Cpd 5, (R)-8-(3-aminopiperidin-1-yl)-7-(but-2-yn-1-yl)-3-methyl-1-((4-methylquinazolin-2-yl)methyl)-3,7-dihydro-1H-purine-2,6-dione] showed an EC50 of 260 nM.

As a reminder, the IC50 is the concentration at which inhibition is half-maximal. Regarding `Cc1cc2ncc(C(=O)NCC(C)(C)NCC(=O)N3CCC[C@H]3C#N)cn2n1` [Cpd 12, (S)-N-(2-((2-(2-cyanopyrrolidin-1-yl)-2-oxoethyl)amino)-2-methylpropyl)-2-methylpyrazolo[1,5-a]pyrimidine-6-carboxamide], the half-maximal inhibitory concentration (IC50) was 11.4 nM on Human DPP4 (read-out: DPPIV IC50, Table 4) and 11.4 nM on Human DPP4 (read-out: Observed DPP4 IC50, Table 5). In turn, `CC(C)(C)OC[C@@H]1C(=O)NCCN1C(=O)C[C@H](N)Cc1cc(F)c(F)cc1F` [Cpd 13, (R)-4-((R)-3-amino-4-(2,4,5-trifluorophenyl)butanoyl)-3-(tert-butoxymethyl)piperazin-2-one] registered a half-maximal effective concentration (EC50) in the experiment with Primary human AEC2s of 15 nM.
